Experimental data reported in patent US8530487B1 (priority 2009, dated 2013).

The chains behind the UniProt entries cited, without tags or fusion partners.
UniProt O75762, whole entry, looked up: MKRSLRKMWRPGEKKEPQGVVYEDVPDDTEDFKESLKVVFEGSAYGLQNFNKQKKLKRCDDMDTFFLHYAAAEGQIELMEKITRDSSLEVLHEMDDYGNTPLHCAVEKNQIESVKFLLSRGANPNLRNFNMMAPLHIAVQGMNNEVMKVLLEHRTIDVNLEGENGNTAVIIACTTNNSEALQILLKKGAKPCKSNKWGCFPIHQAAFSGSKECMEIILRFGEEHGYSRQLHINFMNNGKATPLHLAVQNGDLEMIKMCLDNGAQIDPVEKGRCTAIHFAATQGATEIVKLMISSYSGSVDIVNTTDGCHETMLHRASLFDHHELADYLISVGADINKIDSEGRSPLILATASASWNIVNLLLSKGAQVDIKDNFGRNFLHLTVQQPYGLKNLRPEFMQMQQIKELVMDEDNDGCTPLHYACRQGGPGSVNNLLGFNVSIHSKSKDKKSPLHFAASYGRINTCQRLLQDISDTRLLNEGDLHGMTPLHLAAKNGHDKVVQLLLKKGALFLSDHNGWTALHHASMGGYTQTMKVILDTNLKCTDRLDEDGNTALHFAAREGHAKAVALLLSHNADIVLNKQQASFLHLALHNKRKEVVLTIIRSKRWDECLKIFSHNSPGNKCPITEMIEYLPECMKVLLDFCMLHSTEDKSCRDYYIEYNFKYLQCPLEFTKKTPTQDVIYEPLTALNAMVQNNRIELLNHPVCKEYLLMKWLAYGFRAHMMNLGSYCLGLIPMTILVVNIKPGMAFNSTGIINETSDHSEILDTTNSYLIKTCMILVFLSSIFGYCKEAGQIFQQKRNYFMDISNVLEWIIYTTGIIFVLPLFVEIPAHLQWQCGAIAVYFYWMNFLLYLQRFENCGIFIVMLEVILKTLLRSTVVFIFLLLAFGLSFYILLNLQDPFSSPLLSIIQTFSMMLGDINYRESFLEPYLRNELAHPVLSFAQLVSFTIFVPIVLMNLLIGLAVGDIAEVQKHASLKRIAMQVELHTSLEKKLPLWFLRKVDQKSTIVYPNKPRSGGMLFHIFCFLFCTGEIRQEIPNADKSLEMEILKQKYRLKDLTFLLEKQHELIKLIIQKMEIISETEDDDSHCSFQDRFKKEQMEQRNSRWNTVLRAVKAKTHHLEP

These molecules were tested against human TRPA1 (Homo sapiens, UniProt O75762) (assay: Whole-cell patch clamp experiments, block of TRPA1 current). Settings: read-out: Activity (IC50), human TRPA1, block of current in continued presence of AITC, the 1st table, scaffold drawing 18.
Assay type: cell-based
`CN(C)CCOc1cccc(C2NC(=S)NC3=C2C(=O)c2ccccc23)c1` (stereo not drawn) was tested, and the IC50 was > 1000 nM. `O=C1C2=C(NC(=S)NC2c2cccc(Cl)c2)c2ccccc21` (stereo not drawn) was tested, and the IC50 was < 100 nM. In the case of `O=C1C2=C(NC(=S)NC2c2ccc3c(c2)OCO3)c2ccccc21` (stereo not drawn), the IC50 is reported as 100 to 500 nM. `COc1ccc(Br)c(C2NC(=S)NC3=C2C(=O)c2ccccc23)c1` (stereo not drawn) was tested, and the IC50 was < 100 nM. With `COc1cc(OC)cc(C2NC(=S)NC3=C2C(=O)c2ccccc23)c1` (stereo not drawn) the IC50 was 100 to 500 nM. In the case of `COCCOc1cccc(C2NC(=S)NC3=C2C(=O)c2ccccc23)c1` (stereo not drawn), the IC50 is reported as < 100 nM. Molecule `O=C1C2=C(NC(=S)NC2c2ccc(Cl)c(F)c2)c2ccccc21` (stereo not drawn) has an IC50 of 100 to 500 nM. `NCCOc1cccc(C2NC(=S)NC3=C2C(=O)c2ccccc23)c1` (stereo not drawn) was tested, and the IC50 was > 1000 nM. `O=C1C2=C(NC(=S)NC2c2cccc(OC(F)F)c2)c2ccccc21` (stereo not drawn) was tested, and the IC50 was < 100 nM. With `O=C1C2=C(NC(=S)NC2c2ccc(F)c(F)c2)c2ccccc21` (stereo not drawn) the IC50 was > 1000 nM. Work on `O=C1C2=C(NC(=S)NC2c2cccc(O)c2)c2ccccc21` (stereo not drawn) yielded an IC50 of 100 to 500 nM. In the case of `O=C1C2=C(NC(=S)NC2c2cccc([N+](=O)[O-])c2)c2ccccc21` (stereo not drawn), the IC50 is reported as 100 to 500 nM. With `COc1ccc(C2NC(=S)NC3=C2C(=O)c2ccccc23)cc1Br` (stereo not drawn) the IC50 was > 1000 nM. For `Cc1ccc(C2NC(=S)NC3=C2C(=O)c2ccccc23)cc1` (stereo not drawn), the IC50 was > 1000 nM. In the case of `COc1ccc(O)c(C2NC(=S)NC3=C2C(=O)c2ccccc23)c1` (stereo not drawn), the IC50 is reported as < 100 nM. For `O=C1C2=C(NC(=S)NC2c2cccc(Cl)c2Cl)c2ccccc21` (stereo not drawn), the IC50 was 100 to 500 nM. `O=C1C2=C(NC(=S)NC2c2cc(O)ccc2Br)c2ccccc21` (stereo not drawn) was tested, and the IC50 was 100 to 500 nM. For `O=C1C2=C(NC(=S)NC2c2ccc(F)cc2)c2ccccc21` (stereo not drawn), the IC50 was > 1000 nM. `O=C1C2=C(NC(=S)NC2c2ccccc2C(F)(F)F)c2ccccc21` (stereo not drawn) was tested, and the IC50 was 100 to 500 nM. For `O=C1C2=C(NC(=S)NC2c2cc(Cl)ccc2F)c2ccccc21` (stereo not drawn), the IC50 was < 100 nM. For `CCOc1ccccc1C1NC(=S)NC2=C1C(=O)c1ccccc12` (stereo not drawn), the IC50 was > 1000 nM. `CCCCOc1cccc(C2NC(=S)NC3=C2C(=O)c2ccccc23)c1` (stereo not drawn) was tested, and the IC50 was > 1000 nM. `COc1ccc(F)c(C2NC(=S)NC3=C2C(=O)c2ccccc23)c1` (stereo not drawn) was tested, and the IC50 was < 100 nM. `CC(C)Oc1cccc(C2NC(=S)NC3=C2C(=O)c2ccccc23)c1` (stereo not drawn) was tested, and the IC50 was > 1000 nM. Work on `O=C1C2=C(NC(=S)NC2c2c(Cl)cccc2Cl)c2ccccc21` (stereo not drawn) yielded an IC50 of 100 to 500 nM. `O=C1C2=C(NC(=S)NC2c2cc(F)c(F)c(F)c2)c2ccccc21` (stereo not drawn) showed an IC50 of 100 to 500 nM. `COc1cccc(C2NC(=S)NC3=C2C(=O)c2ccccc23)c1` (stereo not drawn) was tested, and the IC50 was < 100 nM. With `O=C1C2=C(NC(=S)NC2c2cccc(OCCO)c2)c2ccccc21` (stereo not drawn) the IC50 was 100 to 500 nM. With `O=C1C2=C(NC(=S)NC2c2ccc([N+](=O)[O-])cc2)c2ccccc21` (stereo not drawn) the IC50 was 500 to 1000 nM. `O=C1C2=C(NC(=S)NC2c2ccccc2Br)c2ccccc21` (stereo not drawn) was tested, and the IC50 was < 100 nM. Work on `O=C1C2=C(NC(=S)NC2c2ccc(Cl)c(Cl)c2)c2ccccc21` (stereo not drawn) yielded an IC50 of 500 to 1000 nM. For `CCc1ccccc1C1NC(=S)NC2=C1C(=O)c1ccccc12` (stereo not drawn), the IC50 was 100 to 500 nM. For `O=C1C2=C(NC(=S)NC2c2ccccc2Cl)c2ccccc21` (stereo not drawn), the IC50 was 500 to 1000 nM. With `O=C1C2=C(NC(=S)NC2c2cccc(OC(F)(F)F)c2)c2ccccc21` (stereo not drawn) the IC50 was 100 to 500 nM. `COc1ccc(OC)c(C2NC(=S)NC3=C2C(=O)c2ccccc23)c1` (stereo not drawn) was tested, and the IC50 was > 1000 nM. In the case of `COc1cc(C2NC(=S)NC3=C2C(=O)c2ccccc23)ccc1O` (stereo not drawn), the IC50 is reported as > 1000 nM. For `CN(C)c1ccc(C2NC(=S)NC3=C2C(=O)c2ccccc23)cc1` (stereo not drawn), the IC50 was > 1000 nM.

Same assay, conditions: read-out: Activity (IC50), human TRPA1, block of current in continued presence of AITC, the 3rd table, scaffold drawing 21
With `O=C1C2=C(NC(=S)NC2c2ccccc2)c2cc(O)ccc21` (stereo not drawn) the IC50 was > 1000 nM. With `COc1ccc2c(c1)C1=C(C2=O)C(c2ccccc2)NC(=S)N1` (stereo not drawn) the IC50 was 100 to 500 nM. In the case of `O=C1C2=C(NC(=S)NC2c2ccccc2)c2cccc(O)c21` (stereo not drawn), the IC50 is reported as > 1000 nM.

Same assay, conditions: read-out: Activity (IC50), human TRPA1, block of current in continued presence of AITC, the 5th table, scaffold drawing 23
With `O=C1NC2=C(C(=O)c3ccccc32)C(c2ccccc2)N1` (stereo not drawn) the IC50 was > 1000 nM. With `COCCCOc1cccc(C2NC(=O)NC3=C2C(=O)c2ccccc23)c1` (stereo not drawn) the IC50 was 100 to 500 nM.
